Data taken from the SangsterLogP compilation.

Assay: method code SF, from Hansch, C. & Leo, A. (1987). Log P database [Dataset]. Pomona College Medicinal Chemistry Project.

| Structure (SMILES) | logP |
| --- | --- |
| COc1ccc([N+](=O)[O-])cc1 | 2.05 |
| OC(C(F)(F)F)C(F)(F)F | 1.66 |
| OCc1ccco1 | 0.28 |
| O=[N+]([O-])OCC(CO[N+](=O)[O-])O[N+](=O)[O-] | 1.62 |
| CC(O)COC(C)CO (configuration not stated) | -0.67 |

Now from value to compound:

| logP | Structure (SMILES) |
| --- | --- |
| 1.38 | O=c1ccoc2ccccc12 |
| 0.37 | C=CN1CCCC1=O |
| 3.72 | CC[C@]1(O)C[C@@H]2CN(CCc3c([nH]c4ccccc34)[C@@](C(=O)OC)(c3cc4c(cc3OC)N(C)[C@H]3[C@@](O)(C(=O)OC)[C@H](OC(C)=O)[C@]5(CC)C=CCN6CC[C@]43[C@@H]65)C2)C1 |
| 1.74 | O=Cc1ccccc1[N+](=O)[O-] |
| 1.16 | C[C@]12C=CC(=O)C=C1CC[C@H]1[C@@H]3C[C@@H](O)[C@](O)(C(=O)CO)[C@@]3(C)C[C@H](O)[C@@]12F |
| -0.24 | O[C@@H]([C@H](O)[C@H](O)CBr)[C@H](O)CBr |
| 3.85 | c1ccc2c(c1)Nc1ccccc1O2 |
